From ChEMBL document CHEMBL6071202, “Design, Synthesis, and Biological Evaluation of 3-Amino-pyrazine-2-carboxamide Derivatives as Novel FGFR Inhibitors” (ACS Med Chem Lett, 2024)

Sequences of proteins named here, by UniProt entry; tags and fusion partners are left off.
UniProt P16092, whole entry: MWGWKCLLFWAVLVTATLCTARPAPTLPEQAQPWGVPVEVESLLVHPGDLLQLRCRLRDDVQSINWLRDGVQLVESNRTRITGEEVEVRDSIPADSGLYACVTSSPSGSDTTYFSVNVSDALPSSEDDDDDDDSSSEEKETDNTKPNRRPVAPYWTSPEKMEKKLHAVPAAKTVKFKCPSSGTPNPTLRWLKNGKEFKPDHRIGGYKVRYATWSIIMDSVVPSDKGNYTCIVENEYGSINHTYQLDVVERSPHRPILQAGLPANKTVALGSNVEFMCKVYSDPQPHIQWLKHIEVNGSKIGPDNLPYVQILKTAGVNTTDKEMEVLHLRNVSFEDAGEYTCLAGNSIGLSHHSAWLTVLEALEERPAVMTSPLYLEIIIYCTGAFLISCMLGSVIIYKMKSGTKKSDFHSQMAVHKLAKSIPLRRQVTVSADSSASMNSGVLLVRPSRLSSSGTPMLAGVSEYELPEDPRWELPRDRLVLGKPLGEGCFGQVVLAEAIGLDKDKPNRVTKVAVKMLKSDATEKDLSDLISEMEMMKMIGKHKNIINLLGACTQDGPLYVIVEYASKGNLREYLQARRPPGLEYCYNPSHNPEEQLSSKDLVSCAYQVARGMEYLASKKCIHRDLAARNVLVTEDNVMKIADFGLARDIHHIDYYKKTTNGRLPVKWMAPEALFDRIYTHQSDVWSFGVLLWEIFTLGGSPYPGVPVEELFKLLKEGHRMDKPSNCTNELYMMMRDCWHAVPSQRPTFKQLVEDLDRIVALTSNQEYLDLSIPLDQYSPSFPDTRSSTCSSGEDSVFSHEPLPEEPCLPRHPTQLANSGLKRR
UniProt P21803, whole entry: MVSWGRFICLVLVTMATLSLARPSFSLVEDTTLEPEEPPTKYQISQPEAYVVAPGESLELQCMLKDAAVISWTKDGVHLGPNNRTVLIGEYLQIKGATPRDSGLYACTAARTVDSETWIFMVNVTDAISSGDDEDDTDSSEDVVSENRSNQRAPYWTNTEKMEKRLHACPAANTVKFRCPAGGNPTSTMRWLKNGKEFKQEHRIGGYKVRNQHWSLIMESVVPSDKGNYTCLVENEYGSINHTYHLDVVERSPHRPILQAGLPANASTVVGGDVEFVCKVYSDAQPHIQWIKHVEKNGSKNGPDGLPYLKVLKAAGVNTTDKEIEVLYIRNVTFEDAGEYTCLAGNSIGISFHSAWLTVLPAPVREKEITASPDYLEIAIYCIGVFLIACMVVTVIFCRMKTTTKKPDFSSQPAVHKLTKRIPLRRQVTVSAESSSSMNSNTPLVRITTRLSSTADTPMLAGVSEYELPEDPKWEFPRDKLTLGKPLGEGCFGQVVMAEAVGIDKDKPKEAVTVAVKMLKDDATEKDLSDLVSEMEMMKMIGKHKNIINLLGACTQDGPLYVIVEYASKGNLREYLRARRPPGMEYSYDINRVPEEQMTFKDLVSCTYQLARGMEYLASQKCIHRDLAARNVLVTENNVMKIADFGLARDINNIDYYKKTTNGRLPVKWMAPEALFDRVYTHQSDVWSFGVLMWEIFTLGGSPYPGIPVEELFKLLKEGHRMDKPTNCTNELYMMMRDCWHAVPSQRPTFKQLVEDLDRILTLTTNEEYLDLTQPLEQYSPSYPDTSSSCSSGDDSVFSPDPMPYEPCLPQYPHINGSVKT
UniProt Q61851, whole entry, looked up: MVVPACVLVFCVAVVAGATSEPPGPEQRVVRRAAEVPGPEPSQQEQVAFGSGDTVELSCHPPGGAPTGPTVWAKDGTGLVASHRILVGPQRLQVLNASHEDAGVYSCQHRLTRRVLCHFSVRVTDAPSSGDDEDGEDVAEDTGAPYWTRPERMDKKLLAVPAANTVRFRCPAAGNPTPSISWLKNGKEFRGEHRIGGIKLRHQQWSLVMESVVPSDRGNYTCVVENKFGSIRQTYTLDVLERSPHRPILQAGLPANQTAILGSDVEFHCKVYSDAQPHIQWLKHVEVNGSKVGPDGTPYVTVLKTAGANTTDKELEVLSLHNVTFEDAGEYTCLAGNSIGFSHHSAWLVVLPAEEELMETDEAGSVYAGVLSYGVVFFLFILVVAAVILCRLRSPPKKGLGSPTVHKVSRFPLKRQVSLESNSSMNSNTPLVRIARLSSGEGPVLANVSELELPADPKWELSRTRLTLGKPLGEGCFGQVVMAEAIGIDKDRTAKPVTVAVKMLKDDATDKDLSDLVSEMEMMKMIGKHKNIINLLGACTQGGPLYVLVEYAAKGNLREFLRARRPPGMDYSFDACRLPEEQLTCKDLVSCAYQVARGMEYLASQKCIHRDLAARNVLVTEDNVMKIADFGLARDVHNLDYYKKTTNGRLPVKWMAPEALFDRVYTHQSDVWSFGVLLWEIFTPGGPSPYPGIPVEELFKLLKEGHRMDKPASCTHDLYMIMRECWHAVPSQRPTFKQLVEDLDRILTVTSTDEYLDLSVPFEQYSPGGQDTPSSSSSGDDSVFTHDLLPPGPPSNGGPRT

Columns and labels:
Assay type in all cases: cell-based
Conditions in all cases: BaF3
[1] = biological target: Fibroblast growth factor receptor 1 (Mus musculus) (UniProt P16092); test: Inhibition of FGFR1 phosphorylation at Tyr653/654 residues in mouse Ba/F3 cells transfected with TEL-fused FGFR1 by Western blotting analysis
[2] = biological target: Fibroblast growth factor receptor 2 (Mus musculus) (UniProt P21803); test: Inhibition of FGFR2 phosphorylation at Tyr653/654 residues in mouse Ba/F3 cells transfected with TEL-fused FGFR2 by Western blotting analysis
[3] = biological target: Fibroblast growth factor receptor 3 (Mus musculus) (UniProt Q61851); test: Inhibition of FGFR3 phosphorylation at Tyr653/654 residues in mouse Ba/F3 cells transfected with TEL-fused FGFR3 by Western blotting analysis
[4] = biological target: Fibroblast growth factor receptor 1 (Mus musculus) (UniProt P16092); test: Inhibition of FGFR1 in mouse Ba/F3 cells transfected with TEL-fused FGFR1 assessed as reduction in ERK1/2 phosphorylation at Thr202/Tyr204 residues by Western blotting analysis
[5] = biological target: Fibroblast growth factor receptor 2 (Mus musculus) (UniProt P21803); test: Inhibition of FGFR2 in mouse Ba/F3 cells transfected with TEL-fused FGFR2 assessed as reduction in ERK1/2 phosphorylation at Thr202/Tyr204 residues by Western blotting analysis
[6] = biological target: Fibroblast growth factor receptor 3 (Mus musculus) (UniProt Q61851); test: Inhibition of FGFR3 in mouse Ba/F3 cells transfected with TEL-fused FGFR3 assessed as reduction in ERK1/2 phosphorylation at Thr202/Tyr204 residues by Western blotting analysis

Measured: inhibition

Nc1ncc(-c2ccc(CN3CCS(=O)(=O)CC3)cc2)nc1C(=O)Nc1cc(O)cc(O)c1
active: [1] Dose-Dependent Effect | [2] Dose-Dependent Effect | [3] Dose-Dependent Effect | [4] Dose-Dependent Effect | [5] Dose-Dependent Effect | [6] Dose-Dependent Effect
